Test results from ChEMBL document CHEMBL5030526, “Synthesis and Preclinical Validation of Novel Indole Derivatives as a GPR17 Agonist for Glioblastoma Treatment” (J Med Chem, 2021).
Calls of active or inactive are those of the source. No cut-off for these calls is given here.

Sequences of proteins named here, by UniProt entry; tags and fusion partners are left off.
UniProt Q13304, whole entry: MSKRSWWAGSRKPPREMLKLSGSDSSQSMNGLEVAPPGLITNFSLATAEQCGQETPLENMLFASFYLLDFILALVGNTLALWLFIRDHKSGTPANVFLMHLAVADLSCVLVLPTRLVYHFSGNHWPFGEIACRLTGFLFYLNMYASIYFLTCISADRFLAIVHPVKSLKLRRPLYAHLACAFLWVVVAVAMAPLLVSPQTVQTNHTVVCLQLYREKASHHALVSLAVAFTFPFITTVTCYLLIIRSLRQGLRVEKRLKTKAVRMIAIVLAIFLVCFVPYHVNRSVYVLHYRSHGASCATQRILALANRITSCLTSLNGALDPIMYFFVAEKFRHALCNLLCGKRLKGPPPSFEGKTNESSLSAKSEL

Experiments:
Type in all cases: functional, cell-based
[1] = target: T1, Uracil nucleotide/cysteinyl leukotriene receptor (Homo sapiens, UniProt Q13304); assay: Agonist activity at human GPR17 in human LN-229 cells transfected with GPR17 siRNA assessed as decrease in calcium levels incubated for 2 hrs by Calcium Fura 2 Dynamic assay; conditions: filed as agonist
[2] = target: T1, Uracil nucleotide/cysteinyl leukotriene receptor; assay: Agonist activity at human GPR17 in human SNB-19 cells assessed as fold decrease in calcium ion levels at 1 to 100 uM incubated for 2 hrs by Calcium Fura 2 Dynamic assay; conditions: filed as agonist, dose 1-100 µM
[3] = target: T1, Uracil nucleotide/cysteinyl leukotriene receptor; assay: Agonist activity at human GPR17 in human SNB-19 cells transfected with GPR17 siRNA assessed as decrease in calcium levels incubated for 2 hrs by Calcium Fura 2 Dynamic assay; conditions: filed as agonist
[4] = target: T1, Uracil nucleotide/cysteinyl leukotriene receptor; assay: Agonist activity at human GPR17 in human LN-229 cells assessed as fold decrease in calcium levels absence of GPR17 siRNA incubated for 2 hrs by Calcium Fura 2 Dynamic assay; conditions: filed as agonist
[5] = target: T1, Uracil nucleotide/cysteinyl leukotriene receptor; assay: Agonist activity at human GPR17 in human LN-229 cells assessed as fold decrease in calcium ion levels at 1 to 100 uM incubated for 2 hrs by Calcium Fura 2 Dynamic assay; conditions: filed as agonist, dose 1-100 µM
[6] = target: T1, Uracil nucleotide/cysteinyl leukotriene receptor; assay: Agonist activity at human GPR17 in human SNB-19 cells assessed as fold decrease in calcium levels absence of GPR17 siRNA incubated for 2 hrs by Calcium Fura 2 Dynamic assay; conditions: filed as agonist

`O=C(Nc1ccccc1)Oc1cc(OC(=O)Nc2ccccc2)c2c(c1)N(C(c1ccc(F)cc1)c1cccc(Cl)c1O)CC2` (stereo unspecified) was tested, and the Activity [1] was “Active”, the fold change (FC) [2] was 1.1 and the Activity [3] was “Active”. For the same molecule, the fold change (FC) [4] was 1.6, the fold change (FC) [5] was 1.1 and the fold change (FC) [6] was 1.6.
